The other results are listed elsewhere or left out.
B1: hsa-mir-4742 (structured_RNA)
RNA: GGGAACAGGUUCUCAACCUGGGUCCACUGGUGUACGAAGUUUCAGCCAGAUACUUUUUAAAAUUUGUUUGAGUUGAGGCAGAUUAAAUAUCUGGCUGAAGCUUCGUGCAC
B2: hsa-mir-7847 (structured_RNA)
RNA: GGGACACUAAUGGCACGUGCGUUGCAGAGGUGUACGAAGUUUCAGCUAGGCCCACUGCUCAGUGGAGCGCUGAAGCUUCGUGCAC
B3: hsa-mir-516a-1_516a-2 (structured_RNA)
RNA: GGGAAUUCCUCAGUGUUAGAGUACGGGAGGUGUACGAAGUUUCAGCAGCACUUUCUGUUGUCUGAAAGAAAAGAAAGUGCUGCUGAAGCUUCGUGCAC
B4: hsa-mir-3685 (structured_RNA)
RNA: GGGAAAAUCAGGCAUUCAAGCCCGGCAAGGUGUACGAAGUUUCAGCGACUUGAGAUUAUAGUCGCUGAAGCUUCGUGCAC
B5: hsa-mir-513a-2_513a-1 (structured_RNA)
RNA: GGGAGAGACCACGGACUGUCAUUCAUAGGGUGUACGAAGUUUCAGCUCAUUUAUGUGAACUAAAAUAUAAAUUUGCUGAAGCUUCGUGCAC
B6: hsa-mir-5705 (structured_RNA)
RNA: GGGACCAACCGUCAGUGUCGUAUUAAGCGGUGUACGAAGUUUCAGCAACACCCAUCCCAGGAUUGCUGAUGGGUGUUGCUGAAGCUUCGUGCAC
B7: hsa-mir-8056 (structured_RNA)
RNA: GGGAAGGGAGUCAUCCCUAAGACAGCCAGGUGUACGAAGUUUCAGCUAGGAGCUGUGCCUCCUGGCCUAUUCCUGUUCGUGGCUGAAGCUUCGUGCAC
B8: hsa-mir-1287 (structured_RNA)
RNA: GGGACAGAGACGCAAGGACUACUCACAAGGUGUACGAAGUUUCAGCCGAGUCUGAGCCUUUAAAAGCCACUCUGCUGAAGCUUCGUGCAC
B9: hsa-mir-4297 (structured_RNA)
RNA: GGGAAAAUCCGUCCGGGGAUGGUCUCUCGGUGUACGAAGUUUCAGCUGUGCCUGCCUUCGAAGUGCACGGCAGGGCUGAAGCUUCGUGCAC
B10: PARIS_ID36 (structured_RNA)
RNA: GGGAAGAAAGUUGACCGGACGCUCACACGGUGUACGAAGUUUCAGCGGCAAGAAUAUUCUCUCUGUUGCUGAAGCUUCGUGCAC
B11: hsa-mir-4799 (structured_RNA)
RNA: GGGACAGGAAUGCAUAACGGACGGAAGCGGUGUACGAAGUUUCAGCCAGUCCUGAGAUGCAGGGACUGGCUGAAGCUUCGUGCAC
B12: hsa-mir-200c (structured_RNA)
RNA: GGGAAAACACUCCUGUCGCGCCAAUUAAGGUGUACGAAGUUUCAGCGUUUGGGUGCGGUUGGGAGUCUCUAAUGCUGAAGCUUCGUGCAC
B13: hsa-mir-556 (structured_RNA)
RNA: GGGAACAGAGGGAACUGCCUAAGGAACCGGUGUACGAAGUUUCAGCAUAUGAGCUUCAUUUAUACAUUUCAUAUGCUGAAGCUUCGUGCAC
B14: hsa-mir-4679-1 (structured_RNA)
RNA: GGGAGCUGAGGCCAUCGGAUACAUCACAGGUGUACGAAGUUUCAGCUGCUUUGUUAGAAACAAAAAGCAGCUGAAGCUUCGUGCAC
B15: hsa-mir-583 (structured_RNA)
RNA: GGGAAGACGUGGUCCGCUUCUCUAUAGCGGUGUACGAAGUUUCAGCUUACUGCAGGGAUCUUAGCAGUACGCUGAAGCUUCGUGCAC
B16: hsa-mir-3142 (structured_RNA)
RNA: GGGACUACGAGUGAAAUGAAUACACGCGGGUGUACGAAGUUUCAGCCUGCUGAAUCUUCAGAAAGGGCUGAAGCUUCGUGCAC
B17: hsa-mir-4502 (structured_RNA)
RNA: GGGAAAGACUAGCCGUACGUAUCCAGUCGGUGUACGAAGUUUCAGCCUUUUUGCUGAUGGAGGGUCUUGCCUCCAUGGGGAUGGCUGGCUGAAGCUUCGUGCAC
B18: hsa-mir-4326 (structured_RNA)
RNA: GGGACAUAAUGCUGCGUCGGAAUAAUCCGGUGUACGAAGUUUCAGCCAGACUCUGGCUGAAGCUUCGUGCAC
B19: hsa-mir-6510 (structured_RNA)
RNA: GGGACGGGUUAUUAACAUCGAUAGGAGGGGUGUACGAAGUUUCAGCGGAGUCCUCUAGACACCGCUGAAGCUUCGUGCAC
B20: hsa-mir-548aq (structured_RNA)
RNA: GGGAACGUCAAAAGGAUGCUCGUUCCGCGGUGUACGAAGUUUCAGCUUUGCCAUUACUUUCAGUGGCAAAGCUGAAGCUUCGUGCAC
B21: hsa-mir-3184 (structured_RNA)
RNA: GGGAACACGUUUAGGCAACCACAUCAAAGGUGUACGAAGUUUCAGCCUUUUGGAAAAUAGAAAAGGCUGAAGCUUCGUGCAC
B22: hsa-mir-1269a (structured_RNA)
RNA: GGGCAUCGUGAGCGGGAAUCUAAAAUUAGGUGUACGAAGUUUCAGCCCAAGUCUGACCACCUGAGGAAUGCCUGGGCUGAAGCUUCGUGCAC
B23: hsa-mir-4795 (structured_RNA)
RNA: GGGAGCCAUUGGAUCUACCAACUGUCGUGGUGUACGAAGUUUCAGCAUAUUGACACUAUAACAAUAAUGUCAAUAUGCUGAAGCUUCGUGCAC
B24: hsa-mir-6070 (structured_RNA)
RNA: GGGACAAGGGGCUAGUAUCCACACCGGUGGUGUACGAAGUUUCAGCGGAGCUCUGUGCCUUUGGGUCCUGGUGAGCUCUGCUGAAGCUUCGUGCAC
B25: NEAT1_ParasoR_ID16 (structured_RNA)
RNA: GGGAAUUCGCGGUAUGACACAACUAUCGGGUGUACGAAGUUUCAGCCACCCAAAGGGGUAAUUGUCCUACUGGUGGCUGAAGCUUCGUGCAC
B26: hsa-mir-3163 (structured_RNA)
RNA: GGGACAGAACAAAGUGCCACUAGAGUAAGGUGUACGAAGUUUCAGCAGACCUUCCUUCCUUGUCUGCUGAAGCUUCGUGCAC

The binders below were run against T1, LIN28A (human?, UniProt Q9H9Z2 1-209) (assay: FOREST: bead pull-down of RNA structure library v1, barcode microarray; U1A/LIN28A: 20 mM HEPES pH 7.5, 80 mM KCl, 20 mM NaCl, 10% glycerol, 2 mM DTT, 0.1 ug/uL BSA, 4 C; BG4/CIRBP/DHX36: 10 mM Tris-HCl pH 7.5, 100 mM KCl (or LiCl),; high values mean tight binding).
T1 sequence: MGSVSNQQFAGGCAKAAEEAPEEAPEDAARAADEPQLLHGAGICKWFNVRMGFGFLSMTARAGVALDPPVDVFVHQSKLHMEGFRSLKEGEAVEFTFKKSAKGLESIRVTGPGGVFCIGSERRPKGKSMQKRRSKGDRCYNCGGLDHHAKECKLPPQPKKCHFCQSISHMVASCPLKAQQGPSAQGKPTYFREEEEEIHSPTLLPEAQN

| Binder | binding signal |
| --- | --- |
| B1 | 0.167 z-score |
| B2 | 0.166 z-score |
| B3 | 0.163 z-score |
| B4 | 0.155 z-score |
| B5 | 0.152 z-score |
| B6 | 0.15 z-score |
| B7 | 0.15 z-score |
| B8 | 0.148 z-score |
| B9 | 0.148 z-score |
| B10 | 0.146 z-score |
| B11 | 0.142 z-score |
| B12 | 0.142 z-score |
| B13 | 0.138 z-score |
| B14 | 0.135 z-score |
| B15 | 0.135 z-score |
| B16 | 0.134 z-score |
| B17 | 0.134 z-score |
| B18 | 0.128 z-score |
| B19 | 0.126 z-score |
| B20 | 0.124 z-score |
| B21 | 0.124 z-score |
| B22 | 0.122 z-score |
| B23 | 0.122 z-score |
| B24 | 0.121 z-score |
| B25 | 0.119 z-score |
| B26 | 0.118 z-score |

The binders below were run against T2, CIRBP (Homo sapiens, UniProt Q14011 1-172) in the same assay as above.
T2 sequence: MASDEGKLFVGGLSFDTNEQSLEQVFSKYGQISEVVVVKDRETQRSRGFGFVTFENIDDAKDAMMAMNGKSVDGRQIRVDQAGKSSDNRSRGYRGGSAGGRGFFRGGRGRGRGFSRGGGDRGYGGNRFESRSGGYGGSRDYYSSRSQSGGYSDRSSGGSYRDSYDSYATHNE

| Binder | binding signal |
| --- | --- |
| B1 | -0.924 z-score |
| B2 | -0.994 z-score |
| B3 | -0.471 z-score |
| B4 | 0.306 z-score |
| B5 | 0.821 z-score |
| B6 | -0.0649 z-score |
| B7 | -0.952 z-score |
| B8 | 0.791 z-score |
| B9 | 0.344 z-score |
| B10 | 0.431 z-score |
| B11 | -0.602 z-score |
| B12 | 0.205 z-score |
| B13 | 1.56 z-score |
| B14 | 0.193 z-score |
| B15 | -0.29 z-score |
| B16 | 0.949 z-score |
| B17 | 0.178 z-score |
| B18 | 0.137 z-score |
| B19 | 1.16 z-score |
| B20 | 0.395 z-score |
| B21 | -1.17 z-score |
| B22 | -0.44 z-score |
| B23 | -0.708 z-score |
| B24 | 0.551 z-score |
| B25 | 0.343 z-score |
| B26 | -0.333 z-score |

These binders were tested against T3, DHX36 (Homo sapiens, UniProt Q9H2U1 1-1008) in the same assay as above.
T3 sequence: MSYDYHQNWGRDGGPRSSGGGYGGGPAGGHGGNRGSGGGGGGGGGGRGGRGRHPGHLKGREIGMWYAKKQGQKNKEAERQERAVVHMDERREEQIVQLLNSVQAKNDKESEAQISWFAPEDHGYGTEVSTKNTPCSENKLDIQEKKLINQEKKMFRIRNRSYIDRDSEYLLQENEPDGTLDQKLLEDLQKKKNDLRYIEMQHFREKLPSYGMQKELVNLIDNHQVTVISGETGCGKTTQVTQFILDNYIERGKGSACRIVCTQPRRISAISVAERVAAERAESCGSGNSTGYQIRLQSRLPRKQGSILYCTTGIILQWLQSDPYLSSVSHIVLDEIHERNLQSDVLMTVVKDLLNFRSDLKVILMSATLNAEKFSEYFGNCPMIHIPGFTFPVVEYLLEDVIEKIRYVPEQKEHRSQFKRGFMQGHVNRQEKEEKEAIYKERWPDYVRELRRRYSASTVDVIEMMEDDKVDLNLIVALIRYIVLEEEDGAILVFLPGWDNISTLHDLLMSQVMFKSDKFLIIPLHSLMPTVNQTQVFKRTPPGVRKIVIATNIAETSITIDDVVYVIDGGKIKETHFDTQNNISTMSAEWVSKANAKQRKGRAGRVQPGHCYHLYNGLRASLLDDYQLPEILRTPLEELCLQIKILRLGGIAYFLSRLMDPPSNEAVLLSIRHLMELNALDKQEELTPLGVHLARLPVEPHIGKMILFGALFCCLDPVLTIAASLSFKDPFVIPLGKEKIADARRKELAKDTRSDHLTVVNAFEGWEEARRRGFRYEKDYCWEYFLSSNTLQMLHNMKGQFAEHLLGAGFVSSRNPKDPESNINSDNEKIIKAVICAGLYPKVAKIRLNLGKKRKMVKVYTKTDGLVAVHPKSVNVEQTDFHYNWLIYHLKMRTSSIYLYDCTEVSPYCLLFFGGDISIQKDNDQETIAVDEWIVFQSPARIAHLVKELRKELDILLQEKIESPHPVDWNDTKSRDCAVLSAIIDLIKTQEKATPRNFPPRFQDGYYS

| Binder | binding signal |
| --- | --- |
| B1 | -0.244 z-score |
| B2 | -0.219 z-score |
| B3 | -1.05 z-score |
| B4 | 0.141 z-score |
| B5 | -0.902 z-score |
| B6 | -0.536 z-score |
| B7 | 0.321 z-score |
| B8 | -0.222 z-score |
| B9 | -0.44 z-score |
| B10 | -0.164 z-score |
| B11 | -1.56 z-score |
| B12 | 0.529 z-score |
| B13 | -0.0452 z-score |
| B14 | 0.765 z-score |
| B15 | -1 z-score |
| B16 | -0.0849 z-score |
| B17 | 0.103 z-score |
| B18 | 0.41 z-score |
| B19 | 0.0757 z-score |
| B20 | -0.0186 z-score |
| B21 | -0.221 z-score |
| B22 | -0.359 z-score |
| B23 | 1.38 z-score |
| B24 | 1.05 z-score |
| B25 | -0.0473 z-score |
| B26 | -1.82 z-score |
